Data reported in BindingDB's records for doi:10.1021/bi301387m (University of Auckland, 2013).

Target: T1, Anthranilate phosphoribosyltransferase (Mycobacterium tuberculosis (strain CDC 1551 / Oshkosh), UniProt P9WFX4)
T1 sequence (P9WFX4 whole entry): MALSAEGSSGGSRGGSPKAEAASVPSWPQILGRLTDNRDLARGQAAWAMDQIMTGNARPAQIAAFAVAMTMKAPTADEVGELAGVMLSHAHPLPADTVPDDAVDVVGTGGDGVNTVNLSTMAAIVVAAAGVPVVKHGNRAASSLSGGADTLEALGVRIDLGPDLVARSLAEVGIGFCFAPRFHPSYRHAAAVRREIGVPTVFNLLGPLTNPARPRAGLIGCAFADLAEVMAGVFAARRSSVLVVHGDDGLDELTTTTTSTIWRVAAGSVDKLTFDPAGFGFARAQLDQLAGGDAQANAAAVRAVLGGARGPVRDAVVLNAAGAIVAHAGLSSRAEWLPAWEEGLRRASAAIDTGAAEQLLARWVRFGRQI
Assay: Fluoresence-based Assay

In the case of O=C(O)c1ccccc1Cc1ccccc1 [ACS No 174], the Ki is reported as 18 µM.
